# Apparent affinities of Ab-14 variants for a coronavirus HR2 peptide

Source: Li et al. 2023 (doi:10.1038/s41467-023-39022-2), MIT Lincoln Laboratory and A-Alpha Bio; data file from the FLAb repository.

Antigen: PDVDLGDISGINAS, a 14-residue peptide of the SARS-CoV-2 spike HR2 region.

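Phage display of a naive human antibody library on the peptide gave the parent. Designed CDR sequences, proposed from the first random library and measured here. Group labels follow the data file (Ctrl: baseline library sampled from a position-specific scoring matrix, with some repeated check sequences; Rand: our label for a block that the file lists under HC and that is probably the random mutants of the ten best first-round binders; En: ensemble of fine-tuned language models; GP: Gaussian process model; GPLM: also part of the Gaussian process libraries; HC: hill climbing; Gen: genetic algorithm; Gibbs: Gibbs sampling; a sequence that several methods proposed may carry one label only). AlphaSeq pools MATa yeast showing the antibodies with MATalpha yeast showing the peptide. The frequency of each diploid, read from paired DNA barcodes, reflects how well the two displayed proteins bind. Each replicate has its own calibration line, from reference interactions of the BCL2 family. Each pool was mated in six replicate cultures.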

Parent scFv Ab-14: VH joined to VL by a 15-residue (Gly4Ser)3 linker. Changes lie in the heavy chain CDRs alone.
VH: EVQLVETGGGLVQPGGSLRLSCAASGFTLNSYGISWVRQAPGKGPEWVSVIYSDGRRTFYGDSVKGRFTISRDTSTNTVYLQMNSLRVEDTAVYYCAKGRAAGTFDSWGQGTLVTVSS
VL: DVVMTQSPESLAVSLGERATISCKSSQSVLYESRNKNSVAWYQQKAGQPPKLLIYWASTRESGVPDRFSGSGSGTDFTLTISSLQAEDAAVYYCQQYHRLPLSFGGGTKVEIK

Each variant is given by its three heavy chain CDRs, as the data file delimits them; those of the parent are GFTLNSYGIS, VIYSDGRRTFYGDSVK, GRAAGTFDS. Values are log10 of the apparent Kd in nM; lower means stronger binding. Averages over replicates are reported, and they cover detected replicates only. Where no diploid with the target was found in any replicate, the entry reads "nd": below detection, most likely a poor binder, though not proof of it. The authors' rule: three or more of the six replicates give a measured affinity, fewer mean a poor binder.

GFTLNSYGIS | VIYSDGRRTMYGDSVK | GRAADTFDS [Ctrl]: 2.18 (1 of 6 replicates).
GFELNSYGIS | VIYADGRRTFYIDSVK | GKAAGTFDS [GP_Gibbs]: 0.12 (6 of 6 replicates).
GFPLNEYGIS | VIYADGRRTFYGDSVK | GYAAGTFDS [GP_HC]: 0.36 (6 of 6 replicates).
GFDLNSYGIS | VIYSDGRRTFYGDSVK | GQAAGTFDK [GP_Gen]: 0.27 (5 of 6 replicates).
GFDLNEYGIS | VIYADGQRTAYVDSVK | GENAGTFDI [En_Gen]: -0.24 (6 of 6 replicates).
LFTLNSYGIS | VIYSDGIRTFYGDSTK | GRAAGTFDS [Ctrl]: nd (0 of 6 replicates).
GFGLNEYGIS | VIYSDGRRTFYHDSVK | GRVAGTFDS [GP_Gen]: 0.23 (6 of 6 replicates).
GFTLNSYGIS | VIYSDGRRTSYGDSVK | GRAAGTFDL [Ctrl]: 0.90 (4 of 6 replicates).
GFDLNEYGIS | VIYADGRRTFYADSVK | GEIAGTFQF [En_HC]: -0.38 (6 of 6 replicates).
DFTLNSYGIS | VIYSDGLRTFYGDSVK | GRAAGTFDS [Ctrl]: nd (0 of 6 replicates).
GFDLNEYGIS | VIYADGRRTAYLDSVK | GTNAGTFDQ [En_HC]: -0.48 (6 of 6 replicates).
LFTLNSYGIS | VIYSDGRRTFYGDSVK | GLEAGTYDS [Ctrl]: nd (0 of 6 replicates).
GWDLNSYGIS | VIYSDCRRTFYGDSVK | GRAAGWFNS [Rand]: nd (0 of 6 replicates).
GFTLNSYGIS | VIYADGRRTFYGDSVK | GRPAGTFDQ [Ctrl]: 1.18 (3 of 6 replicates).
GFSLNSYGIS | VIYSDGRRTFYGDSVK | GEAAGTFDF [GPLM_Gen]: 0.23 (6 of 6 replicates).
GFDLNSYGIS | VIYSDGRRTFYVDSVK | GQTAGTFDS [GP_Gen]: 0.85 (5 of 6 replicates).
GSSLDEYGIS | VIYADGQRVQYADTVK | GIQGVNVDV [En_Gibbs]: nd (0 of 6 replicates).
GFNLDEYGIS | VIYADGMRTAYSDSVK | GETAGTFDV [En_Gen]: -0.20 (6 of 6 replicates).
GFTLNSYGIS | VIYSDGERTFYGDSVK | GRAKGTFDS [Ctrl]: nd (0 of 6 replicates).
GFTLNDYGIS | VIYSDGRRTFYGDSVK | GRHAGTFDK [GPLM_HC]: 1.88 (2 of 6 replicates).
GFTLNMYGIS | VIYSDGRRTFYGDSVK | GGAAGTFDV [Ctrl]: 0.92 (6 of 6 replicates).
GFSLNSYGIS | VIYSDGRRTFYADSVK | GRQAGTFDS [GPLM_Gen]: -0.01 (6 of 6 replicates).

Continued, with the values leading:

Read-out -0.58 (6 of 6 replicates), from GFDLNEYGIS | VIYADGMRKFYADKVK | GENAGTFDV [En_HC].
Read-out 2.12 (2 of 6 replicates), from GDNLDEYGIS | VIYADGQRTAYSDPVK | GEFTVTVGK [En_Gibbs].
Read-out nd (0 of 6 replicates), from GFTLNSYGIS | VIYADCRRTFYGDQVK | GENAGDFDS [Ctrl].
Read-out 1.08 (6 of 6 replicates), from GFTLNEYGIS | VIYSDGRRTFYGDSVK | GAAAGTFSS [Ctrl].
Read-out nd (0 of 6 replicates), from GFHLNSYGIH | VIYSDGRRTFYGDSVK | GRNAGTPNE [Ctrl].
Read-out nd (0 of 6 replicates), from GFSIDEYGIS | VIYADGSRQVYQNKVK | GKGTGNFTT [En_Gibbs].
Read-out 0.24 (1 of 6 replicates), from GFTLNSYNIS | VIYSDGRRTFYGDSVK | GRAAGTFIS [Ctrl].
Read-out -0.44 (6 of 6 replicates), from GFDLESYGIS | VIYADGQRTFYADKVK | GENAGTFDI [En_HC].
Read-out nd (0 of 6 replicates), from GFTINQYYIS | VIYSDGRRTAYGDSVK | GRAAGTFDS [Ctrl].
Read-out nd (0 of 6 replicates), from GFTLNEYGIK | VIYSDGRRQFYGDSVK | GRAAVTFDC [Rand].
Read-out nd (0 of 6 replicates), from GFTLNSYGIS | VIYADGRRTFYGDSVK | GRAAGTNKK [GP_HC].
Read-out -0.35 (6 of 6 replicates), from GFNLDEYGIS | VIYADGRRTFYSDSVK | GEVAGTFDI [En_HC].
Read-out 0.65 (6 of 6 replicates), from GFTLNDYGIS | VIYSDGRRTQYSDSVK | GRTAGTFDS [GP_HC].
Read-out -0.45 (6 of 6 replicates), from GFDLDEYGIS | VIYADGMRTAYADDVK | GQNAGTFDL [En_Gen].
Read-out -0.14 (6 of 6 replicates), from GFDINEYGIS | VIYADGRRTAYADSVK | GENAGTFDV [En_HC].
Read-out 0.15 (6 of 6 replicates), from GFDLNEYGIS | VIYADGRRTFYTDSVK | GGNAGTFDE [En_HC].
Read-out 0.27 (6 of 6 replicates), from GFELNSYGIS | VIYADGRRTFYGDSVK | GQAAGTFDD [GP_Gen].
Read-out nd (0 of 6 replicates), from GFDIEEMGIS | VIYADGIRQAYKNDVK | GKNVGRFAV [En_Gibbs].
Read-out -0.33 (6 of 6 replicates), from GFNLNEYGIS | VIYADGMRTFYSDSVK | GEHAGTFDV [En_HC].
Read-out -0.20 (6 of 6 replicates), from KFKLNSYGIS | VIYADGRRTFYGDSVK | GKAAGTFDS [GP_Gen].
Read-out nd (0 of 6 replicates), from GFDLGEYGIS | VIYADGRRFSYKDAVK | GQVEGMLDV [En_Gibbs].
Read-out 0.21 (6 of 6 replicates), from GFDLNSYGIS | VIYSDGRRTFYGDAVK | GKQAGTFDS [GP_Gen].
Read-out 1.66 (6 of 6 replicates), from GFSLNEYGIS | VIYSDGRRTFYTDSVK | GHFAGTFDS [GP_HC].

The 5 strongest on average among those seen in every replicate, once more:

CDR-H1,CDR-H2,CDR-H3,group,"log10 Kd (nM), mean",detected
GFDLNEYGIS,VIYADGMRKFYADKVK,GENAGTFDV,En_HC,-0.58,6 of 6
GFDLNEYGIS,VIYADGRRTAYLDSVK,GTNAGTFDQ,En_HC,-0.48,6 of 6
GFDLDEYGIS,VIYADGMRTAYADDVK,GQNAGTFDL,En_Gen,-0.45,6 of 6
GFDLESYGIS,VIYADGQRTFYADKVK,GENAGTFDI,En_HC,-0.44,6 of 6
GFDLNEYGIS,VIYADGRRTFYADSVK,GEIAGTFQF,En_HC,-0.38,6 of 6

Three control strains display no target. For all heavy chain designs, 1% of the pairings with them gave a signal, with a median of 2.08 and one signal in twenty below 0.84, so weak values seen in few replicates may be background. A sequence measured in both rounds can read differently, since the two assays cover different ranges.